# AlphaSeq binding of Ab-91 heavy chain variants to a spike HR2 peptide

From the AlphaSeq antibody data of Engelhart et al. 2022 (doi:10.1038/s41597-022-01779-4), copy in the FLAb collection.

Target peptide (SARS-CoV-2 spike, HR2 region): PDVDLGDISGINAS

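The starting antibody came from a phage panning campaign against this peptide. Library AAYL51 holds single substitutions and randomly drawn double and triple substitutions in the CDRs. In AlphaSeq, yeast of one mating type display the scFv and yeast of the other type display the target. Mating (16 h, 30 °C) was followed by selection of diploids and sequencing of their barcodes. A regression on co-assayed BCL2-family reference pairs converts the normalised counts of each replicate to an apparent Kd. Mating was done three times.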

Parent: Ab-91, a human scFv built as VL, three GGGGS repeats, VH. Only the CDRs of the heavy chain vary.
VL: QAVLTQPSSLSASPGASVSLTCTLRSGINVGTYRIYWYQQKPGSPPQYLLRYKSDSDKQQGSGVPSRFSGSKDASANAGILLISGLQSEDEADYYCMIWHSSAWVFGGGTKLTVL
VH: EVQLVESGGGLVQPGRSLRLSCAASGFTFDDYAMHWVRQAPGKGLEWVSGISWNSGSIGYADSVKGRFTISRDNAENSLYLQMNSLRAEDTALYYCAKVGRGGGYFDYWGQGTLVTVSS

Substitutions are numbered in sequence along the VH above, starting at 1 (not Kabat). The read-out is the apparent dissociation constant on a log10 scale (nM): the lower, the stronger. An entry "ND" has no value in the source: the pair was not observed among the diploids in that replicate. This suggests poor binding but is not conclusive. Nonspecific signal, from three strains lacking the peptide, appeared in 21% of pairings of library AAYL51, centred on 4.54 (5% of these signals below 3.26); values are not corrected for it. Also given: how often the same scFv was detected with the empty control strains, with their mean in brackets. In this assay the parent's reference entry averaged 1.86; its copy inside this library read 0.88.

changes | log10 Kd (nM) by replicate | control signals
D31E+R101P | 2.26 / 2.12 / 0.92 | 0/9
T28V+S63R+V64N | 4.06 / ND / ND | 3/9 (5.20)
Y32F+H35K+V99F | 4.35 / 5.21 / 5.47 | 3/9 (5.53)
F27M+A61F+D62M | ND / ND / ND | 1/9 (3.76)
G50W+G59I | ND / ND / ND | 1/9 (5.22)
D31Q+G50K+S55Y | 5.08 / 6.27 / 4.84 | 3/9 (4.77)
T28A+D31K | 1.86 / 1.98 / 1.56 | 3/9 (4.63)
F27R+V99F | 4.49 / ND / 4.25 | 1/9 (4.76)
I58S+D62E+S63G | 2.79 / 3.07 / 3.00 | 0/9
D30H+I51N+F106C | 4.69 / ND / ND | 1/9 (4.34)
M34T+Y60N+K65C | ND / 4.73 / ND | 0/9
K65H+G103E+F106P | 4.08 / ND / ND | 1/9 (5.35)
D31A+G103V+Y105P | ND / ND / ND | 0/9
T28D+D62C+G104L | 2.38 / 2.54 / 2.66 | 2/9 (4.58)
Y60K+G103Y+Y105I | ND / ND / ND | 0/9
S57H+G100V+G102N | 2.63 / 2.70 / 2.65 | 3/9 (3.73)
G100L+F106W+Y108D | 4.23 / ND / 4.06 | 1/9 (5.14)
M34D+G102M | ND / ND / 4.72 | 3/9 (3.99)
M34E+H35E+V99I | ND / ND / ND | 1/9 (2.70)
G26H+M34I+G103C | ND / ND / ND | 2/9 (4.32)
S52Q+S57W+Y108S | 5.00 / 4.56 / ND | 5/9 (4.92)
D31Q+N54C+D107F | ND / 4.95 / ND | 0/9
G50R+N54E+R101D | 4.19 / ND / ND | 3/9 (3.81)
G26P+G50H+V99G | ND / ND / ND | 1/9 (3.02)
W53R+S55Y+R101H | 4.54 / 4.95 / ND | 5/9 (4.43)
G26C | 1.71 / 1.55 / 1.78 | 1/9 (3.77)
H35T+I58C+K65T | 4.95 / 5.09 / 5.34 | 6/9 (4.68)
F27I+S52K+I58Y | 4.18 / 4.83 / ND | 1/9 (4.41)
F29T+A61S+Y105I | ND / ND / ND | 0/9
T28E+H35T+F106D | ND / ND / ND | 2/9 (3.11)
T28H+M34K+R101Y | ND / ND / ND | 4/9 (4.99)
D30R+V99D+Y108C | ND / 4.63 / ND | 2/9 (3.84)
A33G+R101W+D107I | 4.14 / ND / ND | 1/9 (3.78)
H35A+I51E+Y105E | ND / ND / ND | 0/9
W53K+Y60P+A61D | ND / ND / ND | 0/9
S52C+R101W+G102S | ND / ND / ND | 0/9
F29S+V64A+K65W | ND / 2.01 / ND | 0/9

The 6 strongest on average among those seen in every replicate, once more:

changes,log10 Kd (nM) by replicate,control signals
G26C,1.71 / 1.55 / 1.78,1/9 (3.77)
D31E+R101P,2.26 / 2.12 / 0.92,0/9
T28A+D31K,1.86 / 1.98 / 1.56,3/9 (4.63)
T28D+D62C+G104L,2.38 / 2.54 / 2.66,2/9 (4.58)
S57H+G100V+G102N,2.63 / 2.70 / 2.65,3/9 (3.73)
I58S+D62E+S63G,2.79 / 3.07 / 3.00,0/9